Source: BindingDB's records for doi:10.1038/sj.bjp.0703341 (Friedrich-Schiller-University Jena, 2000)

Protein sequences, listed by entry. Tags and fused reporters are not part of them.
UniProt P31388, whole entry: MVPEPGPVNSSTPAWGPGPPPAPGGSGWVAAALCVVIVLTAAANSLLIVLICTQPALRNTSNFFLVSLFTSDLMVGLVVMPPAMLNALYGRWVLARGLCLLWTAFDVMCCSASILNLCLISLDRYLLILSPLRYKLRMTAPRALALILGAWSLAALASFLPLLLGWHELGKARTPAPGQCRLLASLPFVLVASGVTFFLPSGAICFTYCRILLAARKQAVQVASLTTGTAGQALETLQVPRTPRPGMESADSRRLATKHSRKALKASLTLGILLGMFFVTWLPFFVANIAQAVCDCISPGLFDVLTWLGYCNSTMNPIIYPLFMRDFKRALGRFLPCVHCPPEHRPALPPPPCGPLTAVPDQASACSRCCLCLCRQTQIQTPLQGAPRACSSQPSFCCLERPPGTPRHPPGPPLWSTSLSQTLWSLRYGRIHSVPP

Target: 5-hydroxytryptamine receptor 6 (Rattus norvegicus, UniProt P31388)

Ki: 2 nM
Structure (SMILES): CSc1ccc2c(c1)C(N1CCN(C)CC1)Cc1ccccc1S2 (stereo unspecified) [methanesulfonic acid;1-methyl-4-(3-methylsulfanyl-5,6-dihydrobenzo[b][1]benzothiepin-5-yl)piperazine]
